High-throughput results as filed in PubChem BioAssay.
A selection: hits, their analogues and other compounds. The true share with any hit is near 3.7%.
A549 viability: kills or reduces viability of A549 cells in Nrf2 counter-screen; Potency, µM (doses to about 46 µM), most hits filed as inhibitors; A549 ARE-Fluc cells, CellTiter-Fluor viability, 18-24 h; hit rate 0.16% among 390,000; AID 504648
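A549 ARE-Fluc cells in 5% FBS OPTI-MEM, 5000 cells/well, rested 2 h then exposed to compounds in concentration-response for 18-24 h at 37 °C. Viability by CellTiter-Fluor fluorescence (Ex 405/Em 525) after 30 min; luciferase luminescence (BugLite, 15 min, RT) read afterwards.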
p53 reactivator: re-activators of mutant p53. Potency, µM (top dose mostly 92.2 µM), hits mostly activators. H1299 p53-A138V BP100-luciferase reporter, luminescence, 24 h. hit rate 0.063% among 320,000. AID 504706; also: nearly all actives have a fitted effect of over 45% in size
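H1299 (p53-null), stable ts p53-A138V + BP100-Luc; 1000 cells/well, Opti-MEM/10% FBS; cpd 4 pt, 1:5; 24 h, 37 deg C, 5% CO2; detection reagent 10 min RT; luminescence.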
Nrf2 activator: activators of Nrf2 (ARE) signaling | AREc32 ARE-luciferase reporter (MCF7-derived line), luminescence, 24 h | Potency, µM (top dose mostly 46.1 µM), most hits filed as activators | hit rate 0.31% among 410,000; also: nearly all actives have a fitted effect of over 65% in size
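For detection, Steady-Glo was added and plates sat 30 min at RT; before that, AREc32_Fluc cells grown overnight in OPTI-MEM/5% FBS had been treated with 23 nL compound for 24 hr at 37 deg C.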
miR-21 reporter: raises the signal of a miR-21 reporter | HeLa miR-21 FLuc reporter, luciferase, 48 h | Potency, µM (doses to about 38.3 µM) | 340,000 tested, under 10 active | AID 2288; active = well fitted rising curve with a large enough effect; inconclusive = small, poorly fitted or top-dose-only effect; inactive = no such curve, though single readings can be large or run the other way;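 also: miR-21 action dims this reporter so a rising signal means less miR-21 action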
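HeLa cells stably expressing CMV-driven firefly luciferase with a downstream miR-21 binding sequence, endogenously expressing miR-21, were treated with titrations (up to about 40uM final) for 48 hours at 37 degree Celsius. Luciferase luminescence was read after lysis.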
ClpP mod: qHTS Assay for Activators of ClpP | Potency, µM (top dose mostly 57.5 µM) | purified B. subtilis ClpP, FRET peptide cleavage, 20 min | hit rate 1.9% among 340,000 | AID 651965, 2013 | ATP-dependent Clp protease proteolytic subunit (Bacillus subtilis (strain 168)), P80244; active = well fitted falling curve with a large enough effect; inconclusive = small, poorly fitted or top-dose-only effect; inactive = no such curve, though single readings can be large or run the other way; also: the source files actives as falling curves though it sought activators and does not explain the sign; nearly all actives have a fitted effect of over 65% in size
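ClpP 10 microg/mL final, pH 8 Tris/KCl buffer with BSA, glycerol, Tween-20; compound pinned in; FRET-FV substrate; RT 20 min; Ex320/Em430; ΔFRET vs ADEP 5.8 microM, DMSO, no enzyme.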
Nrf2 inh: inhibitors of Nrf2 signaling | Potency, µM (highest dose often 46 µM), usual class: inhibitors | hit rate 2.1% among 360,000 | A549 ARE-Fluc reporter, luciferase luminescence, 18-24 h; also: nearly all actives have a fitted effect of over 60% in size
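Nrf2 activity is the BugLite luminescence, read 15 min after reagent at room temperature, following CellTiter-Fluor cytotoxicity readout (30 min, 37C). Compound titrations were applied for 18-24 h to 5000 A549 ARE_Fluc cells/well in 5% FBS OPTI-MEM.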
Hits are given with their value; i = inactive; ? = inconclusive; nt = no result. Unless noted, calls follow the shape of the dose curve; as a rule, active = well fitted curve in the direction sought with a large enough effect; inconclusive = small, poorly fitted or top-dose-only effect, or another doubt; inactive = no such curve, though single readings can be large; an effect the other way counts as inactive or inconclusive.

By UniProt entry, the sequences of proteins in these tests, tags left out.
ATP-dependent Clp protease proteolytic subunit (Bacillus subtilis (strain 168)), P80244, UniProt P80244, whole entry, looked up: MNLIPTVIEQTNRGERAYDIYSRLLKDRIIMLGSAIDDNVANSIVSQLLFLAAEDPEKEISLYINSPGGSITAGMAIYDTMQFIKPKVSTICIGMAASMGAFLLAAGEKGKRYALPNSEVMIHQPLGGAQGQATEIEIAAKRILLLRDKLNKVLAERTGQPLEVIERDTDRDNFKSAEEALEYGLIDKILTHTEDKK

SMILES | A549 viability | p53 reactivator | Nrf2 activator | miR-21 reporter | ClpP mod | Nrf2 inh
COc1cccc2c1ncc1c(-c3ccc(C)cc3)nn(-c3ccc(F)cc3)c12 | i | nt | i | i | i | nt
COC(=O)c1cn(NC(=O)c2ccc(OC)c(OC)c2)c(=O)c2ccccc12 | i | i | i | i | i | ?
COC(=O)c1cn(NC(=O)/C=C/c2cc(OC)ccc2OC)c(=O)c2ccccc12 | i | i | i | i | 28.2µM | i
CC(C)(C)OC(=O)NCc1nnc(C(C(=O)OCc2ccccc2)c2ccccc2)s1 (stereo not given) | i | nt | nt | nt | nt | i
Cc1ccc(NC(=S)N/N=C/c2ccc([N+](=O)[O-])s2)cc1 | 23.1µM | i | i | i | i | ?
Cc1cc(C)cc(N=Cc2ccc([N+](=O)[O-])s2)c1 | i | i | ? | i | i | i
COc1ccc(CN2CC[C@H]3C=CC[C@@H](C(=O)N4CCN(c5ccccc5)CC4)[C@H]3C2=O)cc1OC | nt | nt | nt | nt | i | nt
COc1ccc(/C=C2\Cc3ccccc3C2=O)cc1OC | i | i | i | i | i | i
COc1ccc(/C=C2\CCc3ccccc3C2=O)cc1Cn1cccn1 | i | ? | i | i | i | 2.31µM
COc1cc(C=C2Cc3ccccc3C2=O)cc(OC)c1OC | nt | nt | 7.08µM | nt | i | nt
CCCN(CCC)c1ccc(/C=C/c2ccnc3ccccc23)cc1 | nt | nt | nt | nt | i | nt
CC(C)c1c(C(=O)N/N=C/c2cccc(OCc3ccc(F)cc3)c2)nnn1-c1nonc1N | i | i | i | i | nt | ?
COc1cc(/C=N/NC(=O)c2nnn(-c3nonc3N)c2C(C)C)ccc1OCc1ccc(F)cc1 | ? | i | i | i | nt | 16.4µM
CC1CCN(Cc2c(C(=O)N/N=C/c3ccc(OC(C)C)cc3)nnn2-c2nonc2N)CC1 | ? | i | i | i | nt | 23.1µM
CC(/C=N/NC(=O)c1nnn(-c2nonc2N)c1CN1CCCCC1)=C\c1ccccc1 | ? | i | i | i | i | 5.17µM
CC(=O)NC(C)(c1ccccc1)c1nc(-c2cccc3cccnc23)cs1 (stereo not given) | nt | nt | i | nt | i | nt
O=C(/C(C=Nc1cccc(C(F)(F)F)c1)=C(/O)c1ccco1)C(F)(F)F | i | ? | 7.94µM | i | i | i
Cc1cccc(Cn2cnc3c(cnn3-c3ccc(Cl)cc3)c2=O)c1 | i | nt | i | i | i | i
c1ccc(-c2nc(-n3nc4ccccc4n3)nc3ccccc23)cc1 | i | i | i | i | 35.5µM | ?
Clc1ccc(-c2nc(N3CCCCC3)nc3ccccc23)cc1 | i | i | i | i | i | i
Oc1ccccc1C1NN=C(c2ccccc2)S1 (stereo not given) | i | i | 7.08µM | i | 7.08µM | ?
CSc1ccc(C2NN=C(c3ccccc3)S2)cc1 (stereo not given) | i | nt | 5.01µM | nt | nt | ?
CCOc1cc(C2NN=C(c3ccc(C)cc3)S2)ccc1O (stereo not given) | i | ? | i | i | i | ?
COC(=O)c1ccc(NC(=O)C2CCN(C(=O)c3ccc(F)cc3)CC2)cc1 | i | nt | i | i | i | i
O=[N+]([O-])c1ccc(Sc2cc[n+]([O-])c3ccccc23)c([N+](=O)[O-])c1 | ? | i | ? | i | nt | 16.4µM
SMILES | A549 viability | p53 reactivator | Nrf2 activator | miR-21 reporter | ClpP mod | Nrf2 inh
N#C/C(=N\Nc1cccc([N+](=O)[O-])c1)C(=O)c1ccc(Br)cc1 | i | i | i | i | nt | 9.2µM
N#C/C(=N\Nc1ccc([N+](=O)[O-])cc1)C(N)=S | 18.4µM | i | i | i | i | ?
C(=N\Nc1nncc2ccccc12)/c1ccccc1 | i | ? | 11.2µM | i | i | ?
Clc1nnc(N/N=C/c2ccccc2)c2ccccc12 | i | ? | ? | i | i | ?
Clc1ccc(/C=N/Nc2nnc(Cl)c3ccccc23)cc1 | i | ? | 1.26µM | i | i | i
Clc1nnc(NN=C2CCCC2)c2ccccc12 | i | ? | 10µM | i | nt | ?
CC(=O)Nc1ccc(C=NNc2nnc(NN=Cc3ccc(NC(C)=O)cc3)c3ccccc23)cc1 | i | nt | i | nt | i | 18.4µM
COc1cc(-c2nnc(SCC(=O)Nc3ccc(F)c(Cl)c3)o2)cc(OC)c1OC | i | nt | i | i | i | i
Cc1[nH]c2ccccc2c1/C=C/c1ccnc2ccccc12 | nt | nt | nt | nt | i | nt
CC(=O)c1cc(-c2ccc(F)cc2)n(CCC(=O)NCc2ccc(C)cc2)c1C | i | nt | i | i | i | nt
COc1ccc(OCC(=O)OC2CCN(C)CC2)cc1 | i | i | i | i | 15.8µM | i
CN1CCC(OC(=O)COc2ccc(Br)cc2)CC1 | i | i | i | i | nt | i
O=C(Nc1ccc(O)cc1)C1CCCN1S(=O)(=O)c1ccc(F)cc1 (stereo not given) | i | i | i | i | i | 14.6µM
CC(C)(C)NC(=O)C1Cc2ccccc2CN1S(=O)(=O)c1ccc(F)cc1 (stereo not given) | i | i | i | i | nt | i
N#Cc1ccc(NC(=O)C2Cc3ccccc3CN2S(=O)(=O)c2ccc(F)cc2)cc1 (stereo not given) | ? | nt | i | i | i | 23.1µM
CC(=O)c1ccc(NC(=O)C2CCCN2S(=O)(=O)c2ccc(F)cc2)cc1 (stereo not given) | i | i | i | i | i | i
CC1=C(c2ccc(C)c(C)c2)S(=O)(=O)N=C1N1CCC(C(=O)NC(C)Cc2ccco2)CC1 (stereo not given) | i | nt | i | i | i | i
CC(=O)N1c2ccc(S(=O)(=O)N3CCCCCC3)cc2CC1C(=O)NC(C)C (stereo not given) | i | nt | i | i | i | nt
CSCC[C@H](NC(=O)c1cccc(S(=O)(=O)N2CCCCCC2)c1)c1nc2ccccc2[nH]1 | ? | i | i | nt | nt | 18.4µM
CSCCC(NC(=O)c1cccc(S(=O)(=O)N2CCOCC2)c1)c1nc2ccccc2[nH]1 (stereo not given) | i | i | i | nt | i | i
COC1CCCCC1NS(=O)(=O)c1ccc(Cl)cc1 (stereo not given) | i | i | i | i | i | i
COC1CCCCC1NS(=O)(=O)c1ccccc1 (stereo not given) | i | i | i | i | 28.2µM | nt
CCOC1=C2[C@@H](CN(S(=O)(=O)c3ccc(C)cc3)[C@H]2c2ccc(CC)cc2)[C@H]2C(=O)N(C)C(=O)[C@H]2C1 | nt | nt | i | nt | i | nt
COc1ccc(-n2c(=O)c3ccccc3n(CC(=O)Nc3cccc(OC)c3)c2=O)cc1 | i | i | i | i | i | i
COc1cccc(-n2c(=O)c3cc(OC)c(OC)cc3n(CC(=O)Nc3cc(C)[nH]n3)c2=O)c1 | i | i | i | i | 28.2µM | i
O=C(O)c1c[nH]c2nccnc12 | nt | nt | i | nt | i | nt
